# Ab-14 heavy chain CDR variants: yeast mating affinities

Source: Engelhart et al. 2022 (doi:10.1038/s41597-022-01779-4), MIT Lincoln Laboratory and A-Alpha Bio; data file from the FLAb repository.

Target peptide (SARS-CoV-2 spike, HR2 region): PDVDLGDISGINAS

Parent scFv Ab-14: VH joined to VL by a 15-residue (Gly4Ser)3 linker. Changes lie in the heavy chain CDRs alone.
VH: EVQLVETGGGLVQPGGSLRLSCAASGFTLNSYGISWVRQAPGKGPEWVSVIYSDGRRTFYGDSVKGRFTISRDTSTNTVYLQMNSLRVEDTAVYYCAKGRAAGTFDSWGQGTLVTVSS
VL: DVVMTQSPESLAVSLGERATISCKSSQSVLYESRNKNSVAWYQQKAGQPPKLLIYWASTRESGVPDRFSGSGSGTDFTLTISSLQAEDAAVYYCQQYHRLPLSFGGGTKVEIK

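Phage display of a naive human antibody library on the peptide gave the parent. AAYL49 was designed without a model: most single CDR substitutions and a random sample of double and triple ones. In AlphaSeq, yeast of one mating type display the scFv and yeast of the other type display the target. After mating in shaken culture at 30 °C for 16 h, diploids were selected and their barcode pairs sequenced. Scores were corrected for input abundance and mapped to Kd with protein pairs of known affinity run in the same pool. There are three technical replicates.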

The parent's heavy chain CDRs are GFTLNSYGIS, VIYSDGRRTFYGDSVK, GRAAGTFDS; each variant's own CDRs replace them letter for letter. All variants listed here change F27 of the VH, counted from its first residue. Each Kd is an estimate from the mating assay, the geometric mean of the replicates in which the pair was seen; lower is stronger. An entry "nd" has no value in the source: the pair was not observed among the diploids in any replicate. This suggests poor binding but is not conclusive. For reference, the parent read 4.4 nM as the reference entry and 13 µM (one replicate of three) as a member of this library. Three control strains display no target. For library AAYL49, 15% of the pairings with them gave a signal, with a median of 11 µM and one signal in twenty below 680 nM, so weak values seen in few replicates may be background. Also given: how often the same scFv was detected with the empty control strains.

With GVTLNSYGIS / VIYSDGRRTTYGDSVK / GRAAGTFDL the result was 14 µM (3 of 3 replicates; controls 3 of 9). With GQTLNSYGIS / VICSDGRRTFYGDSVK / GRACGTFDS the result was 6.4 µM (2 of 3 replicates; controls 1 of 9). With GDTLNSYGIS / VIYSDGRRTFYGVTVK / GRAAGTFDS the result was 12 µM (1 of 3 replicates; controls 0 of 9). With GSTLNSYGIS / VIYSDGRRKFYGDSIK / GRAAGTFDS the result was nd (0 of 3 replicates; controls 0 of 9). The variant GATLNSYGIS / VIYSDGRRTAYGDSVK / GRAAGTFDP gave 200 nM (1 of 3 replicates; controls 1 of 9). With GATLNIYGIS / VIYSDGRRTFYGDSVV / GRAAGTFDS the result was 120 µM (3 of 3 replicates; controls 3 of 9). The variant GGTLNSYGIL / VIYSDGRRTFYGDSVK / GRAAFTFDS showed 4.1 µM (1 of 3 replicates; controls 1 of 9).

With GDTLNEYGIQ / VIYSDGRRTFYGDSVK / GRAAGTFDS the result was 330 µM (1 of 3 replicates; controls 4 of 9). The variant GPTLNKYGIS / VIYSDGRRTFYGDSVN / GRAAGTFDS gave nd (0 of 3 replicates; controls 1 of 9). The variant GMTLNSYGIS / VIYSDGRRTFYGDSVG / GRAGGTFDS showed 71 µM (1 of 3 replicates; controls 0 of 9). With GTTLNSYGIS / VIYSDGIRGFYGDSVK / GRAAGTFDS the result was nd (0 of 3 replicates; controls 1 of 9). For GATLNSDGIS / VIYSDGRRTFYGDSVK / GMAAGTFDS, the assay gave nd (0 of 3 replicates; controls 2 of 9). With GMTLNSYGTS / VIYSDGRRTFYGDKVK / GRAAGTFDS the result was 4.1 µM (1 of 3 replicates; controls 0 of 9). The variant GYTLNSYQHS / VIYSDGRRTFYGDSVK / GRAAGTFDS gave nd (0 of 3 replicates; controls 2 of 9).

For GQTLNSYGIS / VIYSDYRRTFYGDSVK / GRAAGTFWS, the assay gave 1.2 µM (2 of 3 replicates; controls 1 of 9). The variant GATLFSYGIS / VIYSDGRRTFYGDSVK / GRAEGTFDS showed 850 nM (1 of 3 replicates; controls 0 of 9). The variant GHTLNSYGIS / VIYSDGRRTFYGDSVL / GRAAGTFDH gave 3.2 µM (3 of 3 replicates; controls 0 of 9). The variant GSTLNSYGIS / VIYSDGRRKFYGDSVK / GRKAGTFDS showed nd (0 of 3 replicates; controls 1 of 9). The variant GSTLNSYGIS / VIYSDGRRTFYGDSVP / GRAAGTFDS showed 39 µM (1 of 3 replicates; controls 2 of 9). The variant DITQNSYGIS / VIYSDGRRTFYGDSVK / GRAAGTFDS gave 11 µM (1 of 3 replicates; controls 1 of 9). For GQTLNSYGIS / VIYSDGRRTFDGDSVK / GRAAGTFDC, the assay gave nd (0 of 3 replicates; controls 1 of 9).

The variant GSTLNSYGIS / VIYSDGKRTFYGDSVK / GRACGTFDS showed 300 nM (1 of 3 replicates; controls 0 of 9). The variant GHTLNSYGIS / VIYLFGRRTFYGDSVK / GRAAGTFDS showed nd (0 of 3 replicates; controls 0 of 9). The variant GITLNSYGIL / VIYSDGRRTFCGDSVK / GRAAGTFDS gave nd (0 of 3 replicates; controls 0 of 9). With GLTLNSYGKS / VIYSDGRRTFYGDSVK / GRAAGTFDN the result was 28 µM (1 of 3 replicates; controls 2 of 9). With GLTLNSYGIS / VIFSDGRRWFYGDSVK / GRAAGTFDS the result was 160 nM (1 of 3 replicates; controls 1 of 9). For GLTLNSYGIS / VIYSDGRRTFYGDSVK / LRAAGKFDS, the assay gave 2.3 µM (3 of 3 replicates; controls 1 of 9). With GTTLNSYGIS / VIYSDGCRTFYGDSVK / GRAAGTFDN the result was 250 nM (2 of 3 replicates; controls 0 of 9).

The variant GGTLNNYGIS / VIYSMGRRTFYGDSVK / GRAAGTFDS showed nd (0 of 3 replicates; controls 1 of 9). The variant GLTLNSYGIS / VIYSDGRRTFYGDSNK / GRAAGTADS showed nd (0 of 3 replicates; controls 4 of 9). The variant GATLNSYGIS / VIYSDGRRTFYGDSWK / GRAAGRFDS gave 63 µM (2 of 3 replicates; controls 4 of 9). For GTTLNSYGIS / VIYSDGRRTFYGDSVK / GRAAGTFDS, the assay gave 26 nM (3 of 3 replicates; controls 1 of 9). For KWTLNKYGIS / VIYSDGRRTFYGDSVK / GRAAGTFDS, the assay gave 330 nM (2 of 3 replicates; controls 2 of 9). With GKTLNSYGIS / VIYSRGRRTFYGDSVK / GGAAGTFDS the result was nd (0 of 3 replicates; controls 1 of 9). The variant GNTLNSYGIS / WIYSDGRRTFYGDSVK / GGAAGTFDS gave 19 µM (2 of 3 replicates; controls 4 of 9).

The variant GATLNSYGIV / VIYSDTRRTFYGDSVK / GRAAGTFDS showed 37 µM (1 of 3 replicates; controls 3 of 9).